Laboratory results reported in EP0590919A1, “Therapeutic agents for parkinson's disease” (KYOWA HAKKO KOGYO CO., LTD., priority 1992, dated 1994).

The chains behind the UniProt entries cited, without tags or fusion partners.
UniProt P47745, whole entry: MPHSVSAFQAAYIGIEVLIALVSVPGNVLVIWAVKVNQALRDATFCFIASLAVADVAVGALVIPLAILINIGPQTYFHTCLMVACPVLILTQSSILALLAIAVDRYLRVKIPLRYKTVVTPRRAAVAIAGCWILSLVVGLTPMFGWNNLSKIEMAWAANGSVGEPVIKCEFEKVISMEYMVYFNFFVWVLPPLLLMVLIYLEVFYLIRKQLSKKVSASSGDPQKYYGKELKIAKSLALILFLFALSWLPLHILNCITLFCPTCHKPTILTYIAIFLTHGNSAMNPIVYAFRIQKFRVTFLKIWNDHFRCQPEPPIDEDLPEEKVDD

Biological target: T1, A₁ receptor (Cavia porcellus, UniProt P47745)
T1 construct: Cerebrum of a guinea pig was suspended in ice-cooled 50 mM Tris; from tissue; host or cells: guinea pig cerebrum membrane preparation
Assay: Adenosine A₁ receptor binding test (³H-CHA binding)
Parameters: species or system guinea pig
Settings: read-out: Inhibition (%) A₁ Receptor

Structure (SMILES)	inhibition at 10 µM [%]	inhibition at 100 µM [%]
CCn1c(=O)c2c(nc(/C=C/c3ccc(OC)c(OC)c3)n2C)n(CC)c1=O [Compound 2, (E)-8-(3,4-Dimethoxystyryl)-1,3-diethyl-7-methylxanthine]	67	62
CCn1c(=O)c2c(nc(/C=C/c3ccc(OC)c(C)c3OC)n2C)n(CC)c1=O [Compound 14, (E)-8-(2,4-Dimethoxy-3-methylstyryl)-1,3-diethyl-7-methylxanthine]	84	86
